# scFv variants of Ab-14 (light chain) against a SARS-CoV-2 spike peptide

The target is the same throughout: PDVDLGDISGINAS, from the HR2 region of SARS-CoV-2 spike.

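The parent was found by panning a naive human phage display library on the peptide. These sequences belong to a second round, designed from the earlier measurements on random variants of the parent. Several design methods are mixed in this list. In AlphaSeq, yeast of one mating type display the scFv and yeast of the other type display the target. Mating (16 h, 30 °C) was followed by selection of diploids and sequencing of their barcodes. Read counts were normalised to the haploid input and turned into Kd by a linear fit to BCL2-family pairs of known affinity, for each replicate. Each pool was mated in six replicate cultures.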

The variants keep the heavy chain, the linker and the frameworks of Ab-14 (scFv order VH, three GGGGS repeats, VL).
VH: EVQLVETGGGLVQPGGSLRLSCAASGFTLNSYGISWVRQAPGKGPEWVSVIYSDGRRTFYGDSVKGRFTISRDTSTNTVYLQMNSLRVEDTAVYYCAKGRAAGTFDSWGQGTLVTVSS
VL: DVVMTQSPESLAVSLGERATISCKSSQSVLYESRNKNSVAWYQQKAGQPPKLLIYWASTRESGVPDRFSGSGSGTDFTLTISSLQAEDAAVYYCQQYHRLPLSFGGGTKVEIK

Each variant is given by its three light chain CDRs, as the data file delimits them; those of the parent are KSSQSVLYESRNKNSVA, WASTRES, QQYHRLPLS.
This list holds designs with more than six substitutions.
Values are apparent Kd, the geometric mean of the replicates that gave a signal; lower means stronger binding.
Where no diploid with the target was found in any replicate, the entry reads "nd": below detection, most likely a poor binder, though not proof of it.
The range of this assay differs from that of the first round, and the authors advise against merging the two.

The variant SFHEINMEGLATTANVA, NASQLFE, QSYFRLPLT showed 40 nM (6 of 6 replicates; controls 0 of 18).
The variant KWSWSWLLESRWWNSVA, NASLRES, QQYHRLPLS showed 3.9 nM (6 of 6 replicates; controls 0 of 18).
The variant KISATYRYESQNKNSIA, EMTTRES, QCYHRLPLS showed 12 nM (5 of 6 replicates; controls 0 of 18).
The variant TIQMFMDNLYHNRNNVA, DTSTLGD, QSYDRLPLS showed 18 nM (6 of 6 replicates; controls 2 of 18).
The variant KMSQSMWYESRQSNSVA, NASNRLS, QQYHRLPLS showed 1.8 nM (6 of 6 replicates; controls 2 of 18).
The variant KSSPSELYEDRLFNSVA, HASQRES, QQYHRLPLS showed 10 nM (6 of 6 replicates; controls 0 of 18).
The variant MVNGIMDHLSKNTNNVA, ETTTREK, QQYDRLPLV showed 9.1 nM (6 of 6 replicates; controls 0 of 18).
The variant LISSVWDYGSRNYNSVA, QTSTRES, QQYDRLPLD showed 230 nM (5 of 6 replicates; controls 1 of 18).
The variant KIQDNLGTLMEQINSVA, ASEEIVD, QSYFRLPLS showed 81 nM (6 of 6 replicates; controls 1 of 18).
The variant KVSPEWEYESRNKASVA, HASTRES, QQYHRLPLS showed nd (0 of 6 replicates; controls 0 of 18).
The variant SMAYFQGGYNQQEKAIA, ESATREQ, QQYFRLPLT showed 29 nM (6 of 6 replicates; controls 0 of 18).
The variant TISNSFMMENQFRNSVA, QASTRLN, QCYDRLPLS showed nd (0 of 6 replicates; controls 0 of 18).
The variant QVQYHPGESLRHASAIA, DVNIKVM, QQYSRLPLA showed 4.8 nM (6 of 6 replicates; controls 0 of 18).
The variant HISSMDMHDGGIMHSIA, DTGITER, QQYMRLPLS showed 2.0 nM (3 of 6 replicates; controls 1 of 18).
The variant QIQMNEITLMENINSIA, NSEVIVQ, QSYFRLPLS showed 30 nM (4 of 6 replicates; controls 0 of 18).
The variant ALEMDTLGQKPKQNNIA, NARVSWE, QQYYMLPLS showed 64 nM (5 of 6 replicates; controls 0 of 18).
The variant AHDHTMDSGKQAPNSIA, NAEQKTI, QQYQRLPLS showed 4.8 nM (6 of 6 replicates; controls 0 of 18).
The variant SIFHGDELYGQNERNIA, DVQAKIV, QQYTRLPLH showed 22 nM (6 of 6 replicates; controls 1 of 18).
The variant QMFFQLFEQGNRSNPIA, HESMRET, QQYAYLPLT showed 410 nM (2 of 6 replicates; controls 0 of 18).
The variant MVTMELRYGDEWQNPIA, EASHLEA, QQYDHLPLG showed 67 nM (6 of 6 replicates; controls 1 of 18).
The variant KLSMLWLGLSRNHNSVA, SASTRES, QQYHRLPLS showed 5.5 nM (6 of 6 replicates; controls 1 of 18).
The variant KLQQSEQYESRNKNSVA, NASDRQS, QQYHRLPLS showed 390 pM (6 of 6 replicates; controls 0 of 18).
The variant KLQQSWEYESRNSNNVA, QASTRSD, QQYHRLPLS showed 33 nM (3 of 6 replicates; controls 1 of 18).
The variant KLDQSGLYGSRNKNSVA, EASEREV, QQYHRLPLY showed 1.0 nM (6 of 6 replicates; controls 1 of 18).
The variant KIGMTLNTLMHQVNNVA, DLVNREN, QQYFRLPLS showed 900 pM (6 of 6 replicates; controls 0 of 18).
The variant MISDMGLHDSRMQNSVA, NNSTREA, QQYHRLPLS showed 23 nM (6 of 6 replicates; controls 1 of 18).
The variant RIEDHHAEGEMRHNSIA, EEHYRMD, QHYSRLPLA showed nd (0 of 6 replicates; controls 0 of 18).
The variant ALELEEMQMMKDINSIA, NTEYKTR, QQYVRLPFS showed 3.4 nM (6 of 6 replicates; controls 4 of 18).
The variant KMSQEVDLESRNDNSVA, NASCRED, QQYHRLPLS showed 9.8 nM (6 of 6 replicates; controls 2 of 18).
The variant VLSDTAVNQYDEADNIA, DKTETSV, QQYARLPLS showed 20 nM (6 of 6 replicates; controls 1 of 18).
The variant MVTQMAMTGMTNKRSVA, NATTREY, QQYHRLPLI showed 30 nM (5 of 6 replicates; controls 0 of 18).
The variant SIAESVHMESRNKNSVA, DNSTRES, QHYHRLPLS showed 530 nM (2 of 6 replicates; controls 1 of 18).
The variant QLSMMTGHMSVSKNNVA, EMETRMN, QQYDRLPLS showed 16 nM (6 of 6 replicates; controls 2 of 18).
The variant KVSDPMVEWYANQSAVA, DHADVQH, QQYDRLPLS showed 430 nM (3 of 6 replicates; controls 1 of 18).
The variant KISGSVMMLSRNPNSVA, EATTRES, QQYHRLPLS showed 300 pM (6 of 6 replicates; controls 1 of 18).
The variant MISQLFMYGSRNYNSIA, QASTRFK, QQYDRLPLI showed 17 nM (2 of 6 replicates; controls 0 of 18).
The variant KCDQSWDYESRNKNNVA, NASQRED, QQYHRLPLS showed 400 pM (6 of 6 replicates; controls 2 of 18).
The variant KLSQLFYKESRKKNNVA, EMTTRGS, QQYDRLPLS showed 17 nM (6 of 6 replicates; controls 2 of 18).
The variant KVSPSMWYESRNKNSVA, DASQRES, QQYHRLPLQ showed 840 pM (6 of 6 replicates; controls 1 of 18).
The variant KISQSWLYEPRNSNSVA, NASTRQM, QQYHRLPLS showed 2.2 nM (6 of 6 replicates; controls 1 of 18).
The variant KVSEFMRGLMSRKDSIA, DNTTRNN, QQYDRLPLS showed 30 nM (6 of 6 replicates; controls 1 of 18).
The variant KLLQVTEYESFNKNSVA, QTSTRES, QDYDRLPLS showed 220 nM (2 of 6 replicates; controls 2 of 18).
The variant KLSESAHFESRKKNSVA, ENSTRES, QQYDHLPLS showed 59 nM (6 of 6 replicates; controls 2 of 18).
The variant KSLISVLDEERNDNSVA, NASHRLS, QQYHRLPLS showed 3.0 nM (6 of 6 replicates; controls 1 of 18).
The variant FITGNYYDKYQASNSIA, DEAHLMA, QQYDLLPLS showed 63 nM (5 of 6 replicates; controls 0 of 18).
The variant KLDGSDNYESRNKNSVA, EASERES, QQYHRLPLS showed 440 pM (6 of 6 replicates; controls 0 of 18).
The variant TLGTSTLEESRNKNSVA, EVSLRES, QSYNRLPLS showed 160 nM (5 of 6 replicates; controls 0 of 18).
The variant NITGMVNGKGTTTKNIA, DAEFRAG, QQYSRLPLS showed 1.7 nM (6 of 6 replicates; controls 1 of 18).
The variant KISMGIEMNTRQNHNMA, EASLKPS, QQYNRLPFA showed nd (0 of 6 replicates; controls 0 of 18).
The variant IFSQSVLMGQLTKNSVA, QASTRFS, QQYHRLPLI showed 1.4 nM (6 of 6 replicates; controls 1 of 18).

8 of these entries, quoted again:

For VLSDTAVNQYDEADNIA, DKTETSV, QQYARLPLS, the assay gave 20 nM (6 of 6 replicates; controls 1 of 18).
For KCDQSWDYESRNKNNVA, NASQRED, QQYHRLPLS, the assay gave 400 pM (6 of 6 replicates; controls 2 of 18).
For KVSDPMVEWYANQSAVA, DHADVQH, QQYDRLPLS, the assay gave 430 nM (3 of 6 replicates; controls 1 of 18).
For KISATYRYESQNKNSIA, EMTTRES, QCYHRLPLS, the assay gave 12 nM (5 of 6 replicates; controls 0 of 18).
For RIEDHHAEGEMRHNSIA, EEHYRMD, QHYSRLPLA, the assay gave nd (0 of 6 replicates; controls 0 of 18).
For MVNGIMDHLSKNTNNVA, ETTTREK, QQYDRLPLV, the assay gave 9.1 nM (6 of 6 replicates; controls 0 of 18).
For KLLQVTEYESFNKNSVA, QTSTRES, QDYDRLPLS, the assay gave 220 nM (2 of 6 replicates; controls 2 of 18).
For KMSQSMWYESRQSNSVA, NASNRLS, QQYHRLPLS, the assay gave 1.8 nM (6 of 6 replicates; controls 2 of 18).

The authors' rule: three or more of the six replicates give a measured affinity, fewer mean a poor binder.
Empty control strains, which show no peptide, gave a signal in 4% of pairings with all light chain designs; the median was 430 nM and 95% of these signals were weaker than 38 nM. No background was subtracted. For each scFv, signals with the empty controls are counted beside the result.

Reference: Li et al. 2023, doi:10.1038/s41467-023-39022-2. File: FLAb, binding data.